Measurements from ChEMBL document CHEMBL4196194, “De Novo Design of α-Helical Lipopeptides Targeting Viral Fusion Proteins: A Promising Strategy for Relatively Broad-Spectrum Antiviral Drug Discovery” (J Med Chem, 2018).

Tested on: Lipid bilayer
Assay: Binding affinity to POPC LUV liposome system at 15 uM
Procedure, shortened: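 Isothermal titration calorimetry at 25 °C. POPC large unilamellar vesicles (13 mM in the syringe) were titrated into peptide in the cell (15 μM) over 20 injections, 120 s apart, with stirring at 750 rpm. The binding constant was derived from the heat released during peptide–lipid binding.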

## CCCCCCCCCCCCCCCC(=O)NCCCC[C@H](NC(=O)CCNC(=O)[C@H](CCCCN)NC(=O)[C@H](CCCCN)NC(=O)[C@H](CCC(N)=O)NC(=O)[C@@H](NC(=O)[C@H](CCC(=O)O)NC(=O)[C@H](CCC(=O)O)NC(=O)[C@@H](NC(=O)[C@H](CCCCN)NC(=O)[C@H](CCCCN)NC(=O)[C@H](CCC(N)=O)NC(=O)[C@@H](NC(=O)[C@H](CCC(=O)O)NC(=O)[C@H](CCC(=O)O)NC(=O)[C@@H](NC(=O)[C@H](CCCCN)NC(=O)[C@H](CCCCN)NC(=O)[C@H](CCC(N)=O)NC(=O)[C@@H](NC(=O)[C@H](CCC(=O)O)NC(=O)[C@H](CCC(=O)O)NC(=O)[C@@H](NC(=O)[C@H](CCCCN)NC(=O)[C@H](CCCCN)NC(=O)[C@H](CCC(N)=O)NC(=O)[C@@H](NC(=O)[C@H](CCC(=O)O)NC(=O)[C@H](CCC(=O)O)NC(=O)[C@@H](NC(=O)[C@H](CCCCN)NC(=O)[C@H](CCCCN)NC(=O)[C@H](CCC(N)=O)NC(=O)[C@@H](NC(=O)[C@H](CCC(=O)O)NC(=O)[C@H](CCC(=O)O)NC(=O)[C@@H](NC(C)=O)[C@@H](C)CC)[C@@H](C)CC)[C@@H](C)CC)[C@@H](C)CC)[C@@H](C)CC)[C@@H](C)CC)[C@@H](C)CC)[C@@H](C)CC)[C@@H](C)CC)[C@@H](C)CC)C(N)=O
  K: 1.04 ×10⁵ /M
